# Data taken from patent US8530494B2, “Buprenophine analogs” (dated 2013).
# Protein sequences, listed by entry. Tags and fused reporters are not part of them. Lines headed by an entry give the natural chain unless they say otherwise; changes in a name come on top.
# UniProt P41146: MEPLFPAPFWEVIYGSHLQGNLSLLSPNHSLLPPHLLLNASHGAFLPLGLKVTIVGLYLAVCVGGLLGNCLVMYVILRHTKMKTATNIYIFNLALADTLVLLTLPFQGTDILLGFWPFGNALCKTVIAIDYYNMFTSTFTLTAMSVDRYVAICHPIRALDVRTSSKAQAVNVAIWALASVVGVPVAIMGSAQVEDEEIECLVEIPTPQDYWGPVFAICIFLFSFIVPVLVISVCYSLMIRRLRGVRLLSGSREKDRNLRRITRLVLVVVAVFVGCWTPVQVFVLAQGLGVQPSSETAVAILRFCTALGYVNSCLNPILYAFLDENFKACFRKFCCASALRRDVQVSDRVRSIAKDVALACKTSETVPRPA
# What was measured:
# ORL-1 = ORL-1 (Homo sapiens (Human), UniProt P41146); settings: read-out: IC50 ORL-1 (partial agonist); Wnendt et al. 1999; cited from earlier work
# rats = experiment: Assessment of respiratory depression, arterial blood gas analysis; settings: for sO2 (oxygen saturation in blood samples), post hoc significance vs. water: 30 mg/kg SC
compound,measurement,setting,value
7-benzylidenenaltrexone,IC50,ORL-1,10 µM
CN1CC[C@]23c4c5ccc(O)c4O[C@H]2[C@@H](O)C=C[C@H]3[C@H]1C5,"oxygen tension, oxygen saturation and pH in blood samples",rats; rats given effective doses,significantly decreased
same,"sO2 (oxygen saturation in blood samples), post hoc significance vs. water","rats; rats, 1 hour","*** (“***” = statistically significant, p < 0.001 vs. water group)"
same,"sO2 (oxygen saturation in blood samples), post hoc significance vs. water","rats; rats, 3 hours","*** (“***” = statistically significant, p < 0.001 vs. water group)"
same,"sO2 (oxygen saturation in blood samples), post hoc significance vs. water","rats; rats, 5 hours",ns
same,"sO2 (oxygen saturation in blood samples), post hoc significance vs. water","rats; rats, 24 hours",ns
same,"sO2 (oxygen saturation in blood samples), post hoc significance vs. water","rats; rats, Baseline",ns
COc1ccc2c3c1O[C@H]1[C@@]4(OC)CC[C@@]5(C[C@@H]4COCc4ccccc4)[C@@H](C2)N(CC2CC2)CC[C@]315,respiratory depression,"rats; rats, doses up to 20 mg/kg",did not induce respiratory depression
